Amino acid sequences for entries named in this document (tags omitted).
UniProt P14842, whole entry: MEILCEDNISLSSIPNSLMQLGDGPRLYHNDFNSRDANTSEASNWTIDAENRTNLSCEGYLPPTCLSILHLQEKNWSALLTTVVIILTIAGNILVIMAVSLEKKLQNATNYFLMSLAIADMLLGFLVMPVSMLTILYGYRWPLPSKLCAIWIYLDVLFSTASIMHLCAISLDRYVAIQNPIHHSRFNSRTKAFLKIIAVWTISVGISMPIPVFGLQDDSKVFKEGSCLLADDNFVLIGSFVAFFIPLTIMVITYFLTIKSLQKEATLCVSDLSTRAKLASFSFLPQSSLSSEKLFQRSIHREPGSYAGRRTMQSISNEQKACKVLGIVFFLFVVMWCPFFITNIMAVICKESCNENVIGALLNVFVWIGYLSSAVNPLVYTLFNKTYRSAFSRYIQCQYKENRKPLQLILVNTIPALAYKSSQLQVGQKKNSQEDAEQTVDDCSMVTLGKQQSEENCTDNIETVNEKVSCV

In ChEMBL document CHEMBL1127459, “Synthesis and biological activity of 3-[2-(dimethylamino)ethyl]-5-[(1,1-dioxo-5-methyl-1,2,5-thiadiazolidin- 2-yl)-methyl]-1H-indole and analogues: agonists for the 5-HT1D receptor” (J Med Chem, 1994):

Target: 5-hydroxytryptamine receptor 2A (Rattus norvegicus, UniProt P14842)
Test: Displacement of [3H]DOB binding to 5-hydroxytryptamine 2A receptor from rat cortex homogenate

In the case of CNS(=O)(=O)Cc1ccc2[nH]cc(CCN(C)C)c2c1, the IC50 is reported as greater than 10 µM.
